According to ChEMBL document CHEMBL4321848 (J Med Chem, 2019):

Biological target: T1, Nicotinamide N-methyltransferase (Homo sapiens) (UniProt P40261)
T1 sequence (whole entry): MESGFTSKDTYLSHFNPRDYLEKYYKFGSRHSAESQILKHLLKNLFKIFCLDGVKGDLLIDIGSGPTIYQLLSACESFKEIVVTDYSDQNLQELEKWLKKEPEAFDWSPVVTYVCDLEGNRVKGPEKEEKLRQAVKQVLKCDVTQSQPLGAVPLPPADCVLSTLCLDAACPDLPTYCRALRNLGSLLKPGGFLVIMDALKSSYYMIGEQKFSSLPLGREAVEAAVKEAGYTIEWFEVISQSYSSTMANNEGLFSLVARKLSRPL
Assay: Inhibition of recombinant human NNMT expressed in Escherichia coli BL21(DE3) cells assessed as inactivation first order rate constant after 30 mins in presence of SAM by LC/MS analysis

SMILES: NC(=O)c1cnccc1Cl
- K: 1.33 M⁻¹ s⁻¹
